EC50, IC50 and Ki data for 1 compound are collected here from US9365534B2, “Arylated camphenes, processes for their preparation and uses thereof” (Yissum Research Development Company of the Hebrew …, priority 2009, dated 2016).

By EC50 is commonly meant the concentration that produces a half-maximal response. One may read the IC50 as the concentration that gives 50% inhibition. As usually defined, the Ki is a measure of affinity in units of concentration, obtained from inhibition or displacement. The low end stands for higher affinity, the high end for lower affinity.

In experiment [1] the target is T1, human CB2 receptor (Homo sapiens (Human), UniProt P34972). The experiment is described as follows: Membrane [35S]GTPγS binding assay. The class given is biochemical. To be noted: human CB2 CHO-K1 membranes, mean (95% confidence interval), n = 5. As to the method:
Human CB2 expressing CHO-K1 membranes (5 μg per incubation mixture) were diluted in 50 mM Tris-HCl (pH 7.5) and 0.5 mM EDTA and added to HU compounds in a pre-mixed incubation cocktail. Final incubation concentrations were 55 mM Tris-HCl (pH 7.4), 1 mM EDTA, 100 mM NaCl, 5 mM MgCl2, 0.5% BSA, 50 μM GDP, 0.2 nM [^35S]GTPγS (PerkinElmer) with varied HU compound concentration and 5 μg membrane. Incubations were continued for 60 minutes at 30° C. in a shaking water bath. Assays were terminated by addition of 2 ml ice cold wash buffer (50 mM Tris-HCl, pH 7.5 and 5 mM MgCl2) and filtration through pre-soaked GF/C filters (Whatman), followed by two further washes. adioactivity was determined as described for competition binding assays.
Data was analyzed using the Prism 4.02 programme (GraphPad Software, San Deigo, Calif., USA). IC50 and EC50 values, as determined from sigmoidal curves, were generated from drug concentrations plotted in log scale. […] It is possible to display data as an average, plus or minus the standard error of the mean in log form, however, this is not easily interpreted or compared to other values. […] The Pearson value, an indication of linearity, was determined for Ki and IC50 or EC50 results obtained for CB2 receptors in binding, cAMP or GTPγS experiments, respectively.
(In general: GTPγS resists hydrolysis and so accumulates on activated G proteins.)

The target of experiment [2] is T1, human CB2 receptor. The class given is cell-based. To be noted: read-out: cAMP Assay CB2 Receptor IC50. The source says:
The cDNA clones for human HA-tagged CB1 and CB2 receptors were obtained from the Missouri S&T cDNA Resource Center (www.cdna.org) in cloning vector pcDNA3.1+. The vector containing the human CB2 receptor was transfected directly into CHO-KI cells obtained from ATCC. The HA-tagged human CB1 receptor sequence was subcloned into the pef4-V5-HisA vector with Kpn1 and Pme1 restriction enzymes and subsequently transfected into CHO-K1 cells. Cells were clonally isolated by limited dilution and screened by immunocytochemistry for expression of the HA tag.
Cells were maintained in DMEM/F12 media supplemented with 10% fetal bovine serum (FBS), 100 units/ml penicillin and 100 μg/ml streptomycin and 2 mM L-glutamine. Transfected cell lines were maintained with additional 150 ug/ml zeocin for pEF HA-CB1 transfected cells and 500 ug/ml G-418 for pcDNA HA-CB2 transfected cells (all reagents obtained from Invitrogen).
Cells were seeded at a density of 10,000 cells per well in poly-L-lysine treated 96-well culture plates (BD Biosciences). […] Radioactive counts within the supernatant were then determined as described for competition binding assays.
pIC50 values were determined from cAMP assays by fitting a sigmoidal concentration response curve using Prism 4.02.

The target in experiment [3] is T1, human CB2 receptor. The experiment is described as follows: Membrane competition binding assay with [3H]-CP 55,940, CHO-CB2 membranes. The source says: The cDNA clones for human HA-tagged CB1 and CB2 receptors were obtained from the Missouri S&T cDNA Resource Center (www.cdna.org) in cloning vector pcDNA3.1+. The vector containing the human CB2 receptor was transfected directly into CHO-KI cells obtained from ATCC. The HA-tagged human CB1 receptor sequence was subcloned into the pef4-V5-HisA vector with Kpn1 and Pme1 restriction enzymes and subsequently transfected into CHO-K1 cells. Cells were clonally isolated by limited dilution and screened by immunocytochemistry for expression of the HA tag. […]
Cells were grown to confluence and harvested in ice cold phosphate buffered saline with 5 mM EDTA. […] Protein concentration was determined using the Dc protein assay kit (BioRad, Hercules, Calif., USA). […]
Radioactivity was determined by incubation of filters with Irgasafe scintillation fluid (PerkinElmer) and scintillation counting in a Wallac Trilux using Microbeta Trilux software. Data was analysed using the Prism 4.02 programme (GraphPad Software, San Deigo, Calif., USA).
All data was analyzed using Prism 4.02. For binding data the Ki was determined from IC50 values derived from competition binding data fitted with one site competition non-linear regression analysis by Prism 4.02 using the Kd values reported above.

As to `CCCCCCC(C)(C)c1cc(OC)c([C@@H]2C=C(CO)[C@@H]3C[C@H]2C3(C)C)c(OC)c1` [HU-308, [(1R,2R,5R)-2-[2,6-dimethoxy-4-(2-methyloctan-2-yl)phenyl]-7,7-dimethyl-4-bicyclo[3.1.1]hept-3-enyl]methanol, reference compound], a half-maximal response in experiment [1] (EC50) required 18.3 nM. The IC50 in experiment [2] amounted to 117 nM. Moreover, the Ki in experiment [3] turned out to be 14 nM.
